Test results from US8557816B2, “Aurora kinase modulators and method of use” (Amgen Inc., priority 2007, dated 2013).

Protein sequences, listed by entry. Tags and fused reporters are not part of them. Residues count along the entry.
UniProt O14965, 133-383 limits assumed: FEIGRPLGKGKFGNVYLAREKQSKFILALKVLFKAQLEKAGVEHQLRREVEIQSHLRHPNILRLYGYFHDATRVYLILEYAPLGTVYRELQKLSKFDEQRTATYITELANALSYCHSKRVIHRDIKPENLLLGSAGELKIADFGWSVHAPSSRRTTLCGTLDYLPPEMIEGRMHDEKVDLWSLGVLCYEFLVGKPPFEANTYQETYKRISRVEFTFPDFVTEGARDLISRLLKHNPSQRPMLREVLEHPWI
UniProt Q9ULW0, 1-43 partner limits assumed: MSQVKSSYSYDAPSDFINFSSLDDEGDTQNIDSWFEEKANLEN

Target: AuroraA-TPX2 (Homo sapiens, UniProt O14965)
Experiment: AuroraA-TPX2 Homogeneous Time Resolved Fluorescent (HTRF) kinase assay
Conditions: read-out: AurA_IC50_IP (uM Avg); average

IC50 [µM] | Compound
0.294 | COc1cnc2c(Sc3ccc(Nc4nnc(N5CCOCC5)c5ccccc45)cc3)ccnc2c1
0.023 | COc1cnc2c(Sc3ccc(Nc4nnc(-c5ccc(Cl)cc5)c5ccccc45)cn3)ccnc2c1
